Measured values from patent EP2340832A1, “Morphinan-6-one compounds for the treatment or prevention of neurodegenerative diseases” (Universität Innsbruck, priority 2009, dated 2011).

By UniProt entry, the sequences of proteins in these tests, tags left out. Where a name states a change or a piece, a line headed by the entry shows the natural chain unless it says otherwise.
UniProt P41144: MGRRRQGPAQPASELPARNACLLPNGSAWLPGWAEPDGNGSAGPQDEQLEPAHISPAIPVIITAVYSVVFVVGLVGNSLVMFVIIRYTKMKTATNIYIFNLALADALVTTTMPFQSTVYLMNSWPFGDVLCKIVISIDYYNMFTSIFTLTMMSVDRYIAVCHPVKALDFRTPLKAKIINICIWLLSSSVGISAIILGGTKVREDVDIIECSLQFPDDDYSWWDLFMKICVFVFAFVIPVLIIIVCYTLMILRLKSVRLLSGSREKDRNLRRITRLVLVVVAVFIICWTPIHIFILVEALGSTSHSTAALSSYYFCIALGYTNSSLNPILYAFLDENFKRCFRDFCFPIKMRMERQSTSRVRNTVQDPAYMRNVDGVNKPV

Biological target: K receptor (Cavia porcellus, UniProt P41144)
Assay: [35S]GTPγS functional assay, guinea pig brain membranes, κ receptor
Type: biochemical
Conditions: read-out: EC50, stimulation of [35S]GTPγS binding; guinea pig brain preparations

CN(C(=O)Cc1ccccc1)[C@H]1CC[C@@]2(CCCO2)C[C@@H]1N1CCCC1
EC50: 60.7 nM
